Test results: patent publication US20170145104A1 (Bristol-Myers Squibb, published 2017)

Tests used:
[1] = molecular target: T1, human GITR, membrane bound (on activated human T cells and on 3A9-hGITR cells) (human, UniProt Q9Y5U5 26-241); assay: Scatchard analysis, 125I-labelled antibody on 3 day stimulated human CD4+ T cells
T1 construct: whole, on cells; the cell is named under assay; also called huGITR; TNFRSF18
T1 sequence (looked up): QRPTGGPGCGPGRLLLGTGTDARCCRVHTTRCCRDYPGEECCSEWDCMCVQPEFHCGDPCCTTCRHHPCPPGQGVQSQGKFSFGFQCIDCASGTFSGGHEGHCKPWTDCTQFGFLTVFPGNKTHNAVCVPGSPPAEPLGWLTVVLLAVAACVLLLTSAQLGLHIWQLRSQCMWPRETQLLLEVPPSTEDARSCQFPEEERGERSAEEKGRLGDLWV

[2] = molecular target: T1, human GITR, membrane bound (on …); assay: binding to activated human CD4+ T cells (anti-CD3/anti-CD28)
[3] = molecular target: T1, human GITR, membrane bound (on …); assay: Scatchard analysis, 125I-labelled antibody on 4 day stimulated human CD4+ T cells
[4] = molecular target: T1, human GITR, membrane bound (on …); assay: binding to activated human CD8+ T cells (anti-CD3/anti-CD28)
[5] = molecular target: T2, cynomolgus GITR on activated cynomolgus T cells (cynomolgus, UniProt Q9Y5U5 26-241 (human entry)); assay: binding to activated cyno CD4+ T cells (anti-CD3/anti-CD28)
T2 construct: also called cyno GITR
T2 chain: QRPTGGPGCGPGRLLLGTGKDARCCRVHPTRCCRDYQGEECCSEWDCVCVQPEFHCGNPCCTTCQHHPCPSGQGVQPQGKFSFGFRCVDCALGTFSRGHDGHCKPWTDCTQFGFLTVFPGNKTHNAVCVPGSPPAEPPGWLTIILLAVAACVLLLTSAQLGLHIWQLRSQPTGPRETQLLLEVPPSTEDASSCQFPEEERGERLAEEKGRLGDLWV

[6] = molecular target: T1, human GITR, membrane bound (on …); assay: Scatchard analysis, 125I-labelled antibody on 3A9-huGITR cells
[7] = molecular target: T2, cynomolgus GITR on activated cynomolgus …; assay: binding to activated cyno CD8+ T cells (anti-CD3/anti-CD28)

B1: 28F3.IgG1.1 (antibody)
heavy: QVQLVESGGGVVQPGRSLRLSCAASGFTFSSYGMHWVRQAPGKGLEWVAVIWYEGSNKYYADSVKGRFTISRDNSKNTLYLQMNSLRAEDTAVYYCARGGSMVRGDYYYGMDVWGQGTTVTVSSASTKGPSVFPLAPSSKSTSGGTAALGCLVKDYFPEPVTVSWNSGALTSGVHTFPAVLQSSGLYSLSSVVTVPSSSLGTQTYICNVNHKPSNTKVDKRVEPKSCDKTHTCPPCPAPEAEGAPSVFLFPPKPKDTLMISRTPEVTCVVVDVSHEDPEVKFNWYVDGVEVHNAKTKPREEQYNSTYRVVSVLTVLHQDWLNGKEYKCKVSNKALPSSIEKTISKAKGQPREPQVYTLPPSREEMTKNQVSLTCLVKGFYPSDIAVEWESNGQPENNYKTTPPVLDSDGSFFLYSKLTVDKSRWQQGNVFSCSVMHEALHNHYTQKSLSLSPG
light: AIQLTQSPSSLSASVGDRVTITCRASQGISSALAWYQQKPGKAPKLLIYDASSLESGVPSRFSGSGSGTDFTLTISSLQPEDFATYYCQQFNSYPYTFGQGTKLEIKRTVAAPSVFIFPPSDEQLKSGTASVVCLLNNFYPREAKVQWKVDNALQSGNSQESVTEQDSKDSTYSLSSTLTLSKADYEKHKVYACEVTHQGLSSPVTKSFNRGEC
notes: 28F3 variable regions with effectorless IgG1.1 constant region; also called 28.IgG1.1
Kd [1]: 0.7 nM
EC50 [2]: 0.67 nM
Kd [3]: 0.87 nM
EC50 [4]: 0.65 nM
EC50 [5]: 0.86 nM
Kd [6]: 0.5 nM
EC50 [7]: 0.74 nM
